Patent publication US20200206312A1

Chains of the proteins cited; added tags and fusions are not shown. A line that says so, or that is headed by a name, gives the form on record, which may keep a tag or linker.
Recombinant human NRP1 with His Tag (Sino Biological Inc.; Cat #1001-H08H) (human), O14786, UniProt O14786, other isoform, or with tags, fused parts or gaps H08H H08H limits assumed: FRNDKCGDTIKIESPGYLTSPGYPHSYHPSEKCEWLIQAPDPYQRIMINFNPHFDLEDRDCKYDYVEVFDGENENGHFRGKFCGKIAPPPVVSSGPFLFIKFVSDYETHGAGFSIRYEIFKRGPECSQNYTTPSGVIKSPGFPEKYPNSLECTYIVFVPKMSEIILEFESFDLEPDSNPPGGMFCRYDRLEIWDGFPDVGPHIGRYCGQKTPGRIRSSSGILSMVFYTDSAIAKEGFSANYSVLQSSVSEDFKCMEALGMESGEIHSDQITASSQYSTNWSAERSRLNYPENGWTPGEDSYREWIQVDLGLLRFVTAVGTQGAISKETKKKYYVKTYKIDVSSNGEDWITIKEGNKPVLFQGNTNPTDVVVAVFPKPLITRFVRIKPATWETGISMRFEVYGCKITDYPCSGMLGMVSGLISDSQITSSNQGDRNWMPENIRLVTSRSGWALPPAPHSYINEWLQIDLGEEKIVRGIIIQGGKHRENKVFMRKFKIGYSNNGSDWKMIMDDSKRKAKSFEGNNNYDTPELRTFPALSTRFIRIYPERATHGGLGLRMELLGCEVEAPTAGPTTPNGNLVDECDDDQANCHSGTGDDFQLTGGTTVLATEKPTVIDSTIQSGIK

Target: Recombinant human NRP1 with His Tag (Sino Biological Inc.; Cat #1001-H08H) (human), O14786
Assay: BLI (Octet Red96), biotinylated peptide on streptavidin sensor, NRP1 in solution

MCMPCFTTDHQMAR (modifications not checked) [NH2(Biotin)-M-C(Capped)-M-P-C(Capped)-[…]OOH]
Kd: 169 nM
